# Values quoted from earlier work, collected in patent US20100076037A1, “Methods of Treating Neuropathic Pain with Agonists of PPAR-gamma” (priority 2006, published 2010).
# Biological target: T1, PPARalpha (Homo sapiens, UniProt Q07869)
# T1 sequence (Q07869 1-468): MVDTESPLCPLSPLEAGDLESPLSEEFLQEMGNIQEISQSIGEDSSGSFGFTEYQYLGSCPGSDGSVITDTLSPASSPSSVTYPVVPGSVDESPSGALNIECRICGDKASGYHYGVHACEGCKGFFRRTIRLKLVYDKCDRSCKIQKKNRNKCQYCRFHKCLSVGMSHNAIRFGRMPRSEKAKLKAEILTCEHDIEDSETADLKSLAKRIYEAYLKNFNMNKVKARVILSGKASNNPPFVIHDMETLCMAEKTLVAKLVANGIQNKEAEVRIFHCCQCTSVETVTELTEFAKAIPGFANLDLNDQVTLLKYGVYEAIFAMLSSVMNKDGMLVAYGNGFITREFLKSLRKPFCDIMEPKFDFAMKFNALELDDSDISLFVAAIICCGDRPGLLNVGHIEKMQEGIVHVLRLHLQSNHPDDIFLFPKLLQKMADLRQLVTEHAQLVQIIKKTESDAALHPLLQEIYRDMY
# Conditions: first value of the pair given as α/γ; read-out: EC50 for PPARalpha agonism; cited from earlier work
compound,measurement,value
Cc1oc(-c2ccccc2)nc1CCOc1ccc(C[C@H](Nc2ccccc2C(=O)c2ccccc2)C(=O)O)cc1 [farglitazar],EC50,2 nM
